Target: Phosphatidylinositol 4,5-bisphosphate 3-kinase catalytic subunit alpha isoform (Homo sapiens, UniProt P42336)
Assay: Inhibition of PI3Kalpha
Method in brief: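 Fluorescence polarization assays for PI3K-α (p110α) and PI3K-γ (p110γ) monitored PIP3 production.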

Amino acid sequences for entries named in this document (tags omitted).
UniProt P42336, whole entry: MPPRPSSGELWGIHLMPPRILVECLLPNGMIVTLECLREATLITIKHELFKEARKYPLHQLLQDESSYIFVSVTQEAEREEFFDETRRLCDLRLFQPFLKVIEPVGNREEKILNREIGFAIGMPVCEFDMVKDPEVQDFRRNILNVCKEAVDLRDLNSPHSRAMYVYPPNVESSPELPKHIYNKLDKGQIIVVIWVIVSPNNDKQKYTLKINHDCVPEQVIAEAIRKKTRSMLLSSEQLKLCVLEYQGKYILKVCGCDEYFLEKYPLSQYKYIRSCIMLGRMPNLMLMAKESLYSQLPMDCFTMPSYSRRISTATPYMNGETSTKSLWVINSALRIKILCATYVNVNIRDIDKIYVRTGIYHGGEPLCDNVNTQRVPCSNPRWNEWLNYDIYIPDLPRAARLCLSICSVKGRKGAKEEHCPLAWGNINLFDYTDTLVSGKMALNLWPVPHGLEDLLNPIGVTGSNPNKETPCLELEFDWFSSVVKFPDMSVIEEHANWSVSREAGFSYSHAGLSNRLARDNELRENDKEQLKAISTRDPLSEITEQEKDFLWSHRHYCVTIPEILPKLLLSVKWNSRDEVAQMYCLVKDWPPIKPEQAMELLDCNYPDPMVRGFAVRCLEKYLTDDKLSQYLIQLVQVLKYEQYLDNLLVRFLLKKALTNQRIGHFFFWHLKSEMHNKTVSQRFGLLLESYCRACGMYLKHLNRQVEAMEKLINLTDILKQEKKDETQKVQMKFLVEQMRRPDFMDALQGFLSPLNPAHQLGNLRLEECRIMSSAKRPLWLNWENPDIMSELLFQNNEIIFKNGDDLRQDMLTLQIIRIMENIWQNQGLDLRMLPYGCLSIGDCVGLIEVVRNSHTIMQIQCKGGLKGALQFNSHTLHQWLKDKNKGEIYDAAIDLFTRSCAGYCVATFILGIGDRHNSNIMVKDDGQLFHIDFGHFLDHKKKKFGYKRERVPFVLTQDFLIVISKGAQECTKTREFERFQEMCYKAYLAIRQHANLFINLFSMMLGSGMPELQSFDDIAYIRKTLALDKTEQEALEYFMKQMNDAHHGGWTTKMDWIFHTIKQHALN

- IC50: 2 nM
SMILES: COc1ccc2[nH]c(-c3ccccc3)c(/C=C3\Oc4cc(O)cc(O)c4C3=O)c2c1

Source: ChEMBL document CHEMBL1156153, “Novel benzofuran-3-one indole inhibitors of PI3 kinase-alpha and the mammalian target of rapamycin: hit to lead studies” (Bioorg Med Chem Lett, 2010)
